Data as given in PMC3713777 (Bioorganic & medicinal chemistry, 2010).

Tested on: SERT
Details: ratio of Ki values taken from references 31 and 32

Fc1ccc([C@@H]2CCNC[C@H]2COc2ccc3c(c2)OCO3)cc1 [Paroxetine]
DAT/SERT: 2000
